# Measured values as given in US6979543B2.
# Assay: Fluorescence quenching of MPS-PPV monolayer films by nitroaromatic vapor
substance,measurement,setting,value
dinitrotoluene,quenching of film fluorescence on vapor exposure (in words),single monolayer MPS-PPV film on glass,substantial quenching of the fluorescence from the films
same,level at which the film senses the vapor by fluorescence quenching,"vapor, room temperature, from vapor pressure",less than 8×10^−9 M

# This is a selection: effects in other tests are not listed, and their absence says nothing.
